How the values were obtained:
[1] = biological target: T1, human μ receptors (Homo sapiens, UniProt P35372); assay: μ opioid receptor agonist functional assay, [35S]GTPγS binding in CHO-hMOR membranes; conditions: FIG. 4
[2] = biological target: T1, human μ receptors; assay: μ opioid receptor antagonist functional assay, [35S]GTPγS binding in CHO-hMOR membranes; conditions: FIG. 5
[3] = biological target: human μ opioid receptor (Homo sapiens, UniProt P35372); assay: Human μ opioid receptor binding assay (3H-naloxone, CHO membranes); conditions: FIG. 2

By UniProt entry, the sequences of proteins in these tests, tags left out. Where a name states a change or a piece, a line headed by the entry shows the natural chain unless it says otherwise.
UniProt P35372: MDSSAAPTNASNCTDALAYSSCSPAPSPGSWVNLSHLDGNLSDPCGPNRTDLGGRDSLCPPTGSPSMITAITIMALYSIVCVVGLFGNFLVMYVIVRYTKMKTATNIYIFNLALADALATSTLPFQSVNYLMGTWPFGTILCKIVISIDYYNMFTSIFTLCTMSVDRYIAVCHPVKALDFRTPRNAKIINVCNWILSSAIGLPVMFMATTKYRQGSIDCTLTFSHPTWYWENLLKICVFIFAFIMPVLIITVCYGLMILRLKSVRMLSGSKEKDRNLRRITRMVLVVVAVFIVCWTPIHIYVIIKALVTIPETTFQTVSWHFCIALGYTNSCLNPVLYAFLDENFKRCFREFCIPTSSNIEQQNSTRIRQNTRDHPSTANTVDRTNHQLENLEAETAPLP

2-[(2S)-2-[(5R,6R,7R,14S)-9α-cyclopropylmethyl-4,5-epoxy-6,14-ethano-3-hydroxy-6-methoxymorphinan-7-yl]-3,3-dimethylbutan-2-ol]-ethanol
μ agonist function [1]: potent μ agonist
μ antagonist function [2]: does not function as a μ-antagonist
affinity for the opioid μ receptor [3]: significant affinity

From patent US20180305370A1 (ORPHOMED, INC., priority 2015, published 2018)
